Source: US20260041781A1, “NOVEL GLUCOCORTICOID RECEPTOR AGONISTS AND IMMUNOCONJUGATES THEREOF” (priority 2022, published 2026)

By UniProt entry, the sequences of proteins in these tests, tags left out. Residues count along the entry.
UniProt P04150, 524-758 limits assumed: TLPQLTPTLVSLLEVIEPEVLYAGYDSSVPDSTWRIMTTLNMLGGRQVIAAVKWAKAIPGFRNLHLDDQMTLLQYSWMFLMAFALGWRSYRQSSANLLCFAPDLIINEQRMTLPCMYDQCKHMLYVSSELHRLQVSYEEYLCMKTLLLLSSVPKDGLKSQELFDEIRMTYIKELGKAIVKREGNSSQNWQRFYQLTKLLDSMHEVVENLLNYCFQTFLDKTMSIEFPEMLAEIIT

Molecular target: GR LBD (ligand binding domain) (Homo sapiens, UniProt P04150)
Assay: GR Reporter Assay (pBind assay, pG5luc luciferase reporter, agonist mode)
Format: cell-based
Settings: HEK293 cells transiently transfected with pG5luc and GR LBD

Row | Compound | EC50 [nM]
1 | CN(C)C(=O)[C@@]12O[C@H](c3cccc(N)c3)O[C@@H]1C[C@H]1[C@@H]3C[C@H](F)C4=CC(=O)C=C[C@]4(C)[C@@]3(F)[C@@H](O)C[C@@]12C | < 5
2 | CN(C)C(=O)[C@@]12O[C@@H](c3cccc(N)c3)O[C@@H]1C[C@H]1[C@@H]3C[C@H](F)C4=CC(=O)C=C[C@]4(C)[C@@]3(F)[C@@H](O)C[C@@]12C | < 5
